## Yeast mating assay 2: variants of the scFv Ab-95

Antigen: PDVDLGDISGINAS, a 14-residue peptide of the SARS-CoV-2 spike HR2 region.

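The library (AAYL52) carries one to three amino acid substitutions per variant, with no insertions or deletions. AlphaSeq pools MATa yeast showing the antibodies with MATalpha yeast showing the peptide. Pairs that bind mate more often; barcode pairs of the diploids are counted by sequencing. Scores were corrected for input abundance and mapped to Kd with protein pairs of known affinity run in the same pool. Each pool was mated in three replicate cultures.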

Each scFv is VH, the linker GGGGSGGGGSGGGGS, VL, as in the parent Ab-95, and differs from it in the CDRs of the light chain only.
VH: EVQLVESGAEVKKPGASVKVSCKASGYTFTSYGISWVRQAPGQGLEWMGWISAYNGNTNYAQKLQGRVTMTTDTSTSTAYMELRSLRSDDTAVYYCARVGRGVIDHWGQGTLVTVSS
VL: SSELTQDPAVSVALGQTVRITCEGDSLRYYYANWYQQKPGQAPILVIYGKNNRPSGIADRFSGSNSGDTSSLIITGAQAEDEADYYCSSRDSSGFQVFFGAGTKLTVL

Positions count from residue 1 of the parent VL; L27E puts E in place of L. All variants listed here change Y31 of the VL, counted from its first residue. Values are apparent Kd, the geometric mean of the replicates that gave a signal; lower means stronger binding. "no signal" marks a missing value. The strain was present, yet no cells mated with the target were sequenced in any replicate, which points to weak or no binding. As a blank, each scFv also met three strains without target: over library AAYL52, 28% of these pairings were detected, typically at 8.2 µM and seldom below 800 nM. For each scFv, signals with the empty controls are counted beside the result. Parent in this assay: reference entry 200 nM, copy in this library 180 nM.

The variant L27E/Y31M/S92V showed 770 nM (3 of 3 replicates; controls 5 of 9).
The variant Y31D/S89W showed 97 nM (3 of 3 replicates; controls 5 of 9).
The variant Y31G/A32D/S93W showed 54 µM (1 of 3 replicates; controls 3 of 9).
The variant Y31D/N51H/N52A showed 16 nM (3 of 3 replicates; controls 6 of 9).
The variant Y31W/N52M/S92L showed 490 nM (3 of 3 replicates; controls 5 of 9).
The variant S26C/Y31S/N52R showed 6.8 µM (3 of 3 replicates; controls 5 of 9).
The variant D25I/Y31V/G94V showed 31 µM (2 of 3 replicates; controls 5 of 9).
The variant Y31C/F95V/F98R showed 250 nM (3 of 3 replicates; controls 6 of 9).
The variant S26K/Y31M/S89A showed 1.8 µM (3 of 3 replicates; controls 2 of 9).
The variant Y31L/G49M/K50C showed no signal (0 of 3 replicates; controls 1 of 9).
The variant Y31P/G49E/R53N showed 480 nM (3 of 3 replicates; controls 1 of 9).
The variant Y31H/Q96I showed 140 nM (3 of 3 replicates; controls 7 of 9).
The variant Y31P/A32K showed 790 nM (1 of 3 replicates; controls 5 of 9).
The variant E23P/Y31I/F98A showed 570 nM (3 of 3 replicates; controls 2 of 9).
The variant Y31E/N51G/V97P showed 40 nM (3 of 3 replicates; controls 2 of 9).
The variant D25A/Y31H/S88E showed 42 nM (3 of 3 replicates; controls 2 of 9).
The variant Y31M/S93T showed 26 nM (3 of 3 replicates; controls 5 of 9).
The variant S26V/Y31N/Q96W showed 540 nM (3 of 3 replicates; controls 2 of 9).
The variant Y31K/S88I/D91V showed 55 µM (1 of 3 replicates; controls 1 of 9).
The variant Y31D/S89H/R90T showed 1.6 µM (3 of 3 replicates; controls 1 of 9).
The variant G24Y/Y31C/Q96A showed 520 nM (2 of 3 replicates; controls 4 of 9).
The variant Y31R/N33I/S93C showed 150 µM (1 of 3 replicates; controls 1 of 9).
The variant E23S/S26A/Y31W showed 82 nM (3 of 3 replicates; controls 1 of 9).
The variant D25N/Y31V/F95Y showed 660 nM (3 of 3 replicates; controls 4 of 9).
The variant Y29S/Y31V/N52C showed 9.3 µM (3 of 3 replicates; controls 4 of 9).
The variant D25W/Y31L/G94P showed no signal (0 of 3 replicates; controls 3 of 9).
The variant G24N/Y31M/K50N showed 1.8 µM (3 of 3 replicates; controls 4 of 9).
The variant R28Y/Y29P/Y31H showed 330 nM (3 of 3 replicates; controls 3 of 9).
The variant Y31S/R53E/S88H showed 1.1 µM (3 of 3 replicates; controls 0 of 9).
The variant R28D/Y31T/S89E showed 200 nM (3 of 3 replicates; controls 5 of 9).
The variant Y31C/N52A showed 110 nM (3 of 3 replicates; controls 1 of 9).
The variant Y31P/G49Y showed 4.3 µM (3 of 3 replicates; controls 2 of 9).
The variant Y31F/F95A/F98P showed 820 nM (3 of 3 replicates; controls 3 of 9).
The variant Y31D/F98S showed 21 nM (3 of 3 replicates; controls 2 of 9).
The variant Y31R/K50I/N52L showed 5.1 µM (3 of 3 replicates; controls 2 of 9).
The variant Y29K/Y31I/S93Y showed 8.1 µM (2 of 3 replicates; controls 1 of 9).
The variant Y31T/G49V/K50H showed 160 µM (1 of 3 replicates; controls 3 of 9).
The variant Y31S/N52K showed 280 nM (3 of 3 replicates; controls 7 of 9).
The variant L27H/Y31C/V97W showed 11 µM (3 of 3 replicates; controls 3 of 9).
The variant Y31Q/R90L/V97L showed 290 nM (3 of 3 replicates; controls 4 of 9).
The variant R28P/Y31M/F95D showed 270 nM (2 of 3 replicates; controls 1 of 9).
The variant Y31T/S92K/F98S showed 62 nM (3 of 3 replicates; controls 2 of 9).
The variant G24T/S26V/Y31A showed 9.7 µM (3 of 3 replicates; controls 2 of 9).
The variant Y29N/Y31W/G49E showed 530 nM (3 of 3 replicates; controls 7 of 9).
The variant D25H/R28H/Y31K showed 5.0 µM (2 of 3 replicates; controls 2 of 9).
The variant Y30P/Y31E/S88W showed no signal (0 of 3 replicates; controls 1 of 9).
The variant Y29S/Y30G/Y31E showed 7.7 nM (3 of 3 replicates; controls 8 of 9).
The variant Y31R/R53A/R90W showed 590 nM (3 of 3 replicates; controls 2 of 9).
The variant D25G/Y31V/N52I showed no signal (0 of 3 replicates; controls 0 of 9).
The variant Y31Q/N51F showed 560 nM (3 of 3 replicates; controls 4 of 9).
The variant Y31R/R53P/S89G showed 3.2 µM (1 of 3 replicates; controls 3 of 9).

Repeated from above, the 5 best binders with a signal in all replicates:

{"changes": "Y29S/Y30G/Y31E", "Kd (apparent)": "7.7 nM", "seen in": "3 of 3", "signal with controls": "8 of 9"}
{"changes": "Y31D/N51H/N52A", "Kd (apparent)": "16 nM", "seen in": "3 of 3", "signal with controls": "6 of 9"}
{"changes": "Y31D/F98S", "Kd (apparent)": "21 nM", "seen in": "3 of 3", "signal with controls": "2 of 9"}
{"changes": "Y31M/S93T", "Kd (apparent)": "26 nM", "seen in": "3 of 3", "signal with controls": "5 of 9"}
{"changes": "Y31E/N51G/V97P", "Kd (apparent)": "40 nM", "seen in": "3 of 3", "signal with controls": "2 of 9"}

Data: MIT Lincoln Laboratory AlphaSeq set, Engelhart et al. 2022, doi:10.1038/s41597-022-01779-4, as distributed in FLAb.